# Only a part is listed here, and it is no random draw. Results filed as inconclusive are left out. Some salts and complexes are drawn in separate pieces, as the source files them; their charges need not balance. Active and inactive are the calls of the source. Calls come from the whole dose curve; as a rule, active = well fitted activation curve with a large enough effect; inconclusive = small, poorly fitted or top-dose-only effect; inactive = no such curve, though single readings can be large or run the other way.
# Test: qHTS for Activators of Integrin-Mediated Alleviation for Muscular Dystrophy;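 note: 100% = response of the positive control SU9516; nearly all actives have a fitted effect of over 60% in size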
# Details: alpha7betagal myoblasts, beta-gal FDG fluorescence, 48 h; series mostly up to 38.3 µM; activation: at the top concentration
row,Structure (SMILES),activation
1,CCOC(=O)N1CCC(Nc2cccc(C)c2)CC1,inactive: 0%
2,COc1cc(C(=O)NCC2(N(C)C)CCCCC2)ccc1OC(F)F,inactive: -12.4%
3,CCOC(=O)N1CCC(Nc2ccc(F)cc2)CC1,inactive: -4.18%
4,COc1ccc(NC2CCN(CCc3ccccc3)CC2)c(OC)c1,inactive: -8.11%
5,CCCCOc1ccc(C(=O)NCC2(N3CCOCC3)CCCCC2)cc1,inactive: 0.714%
6,O=P1(N(CCCl)CCCl)SCCCS1,inactive: -16%
7,O=C(NCC1(N2CCCCC2)CCCCC1)c1ccc(F)cc1,inactive: 9.92%
8,CCOc1ccc(C)cc1CN(CCCl)CCCl,inactive: -0.256%
9,O=C1CCN(Cc2ccccc2)CC1,inactive: -1.71%
10,CCOC(=O)N1CCC(Nc2ccc(OC)cc2)CC1,inactive: -29.5%
11,O=C1C(O)=C([N+](=O)[O-])C(=O)C(O)=C1[N+](=O)[O-],inactive: 18.9%
12,N#CC1(Nc2ccccc2)CCN(Cc2ccccc2)CC1,inactive: 16.3%
13,O=C(NCC1(N2CCCCC2)CCCCC1)c1ccc(Cl)s1,inactive: -23.6%
14,O=C(OC1CN2CCC1CC2)C1c2ccccc2Oc2ccccc21 (configuration not stated),inactive: -4.32%
15,O=C(NCC1(N2CCOCC2)CCCCC1)c1cc2ccccc2o1,inactive: 21.5%
16,Cc1cc(C)cc(N(C(=O)c2ccccc2)C2CCN(C(=O)OC(C)(C)C)CC2)c1,inactive: 18.5%

row,Structure (SMILES),activation
1,O=C(NCC1(N2CCCCC2)CCCCC1)c1ccc(Cl)nc1,inactive: -11.2%
2,Cc1cccc(NC2(C#N)CCN(Cc3ccccc3)CC2)c1,inactive: -25%
3,CSc1ccccc1C(=O)NCC1(N2CCCCC2)CCCCC1,inactive: 10.7%
4,O=C(NCC1(N2CCCCC2)CCCCC1)c1cccs1,inactive: -7.5%
5,O=C(NCC1(N2CCCCC2)CCCCC1)c1ccc(=O)[nH]c1,inactive: 33.8%
6,CC(C)(C)OC(=O)N1CCC(N(C(=O)c2ccccc2)c2ccc(F)cc2)CC1,inactive: -36.4%
7,COc1ccc(C(=O)NCC2(N3CCCCC3)CCCCC2)c(OC)c1OC,inactive: -6.79%
8,COc1ccc(C(=O)NCC2(N3CCCCC3)CCCCC2)cc1,inactive: 8.22%
9,CCCOc1ccc(C(=O)NCC2(N(C)C)CCCCC2)cc1OC,inactive: -31.3%
10,Cc1ccc(C(=O)NCC2(N(C)C)CCCCC2)o1,inactive: 11.7%
11,O=[N+]([O-])c1cc([N+](=O)[O-])c(Nc2ccc(Cl)cc2)c([N+](=O)[O-])c1,inactive: -64.8%
12,CN1CCC(Nc2cccc(F)c2)CC1,inactive: -16.6%
13,COc1ccc2c(c1O)-c1c(O)c(OC)cc3c1[C@H](C2)[N+](C)(C)CC3.O=[N+]([O-])c1cc([N+](=O)[O-])c([O-])c([N+](=O)[O-])c1[O-],inactive: 9.16%
14,O=C(NCC1(N2CCCCC2)CCCCC1)c1cncc(Br)c1,inactive: 15.8%
15,O=C(OC1CN2CCC1CC2)c1ccc([N+](=O)[O-])cc1 (configuration not stated),inactive: 2.84%
16,O=C(NCC1(N2CCOCC2)CCCCC1)c1cc(F)c(F)cc1Cl,inactive: -0.958%
